{"sequences": {"note": "Chains of the proteins cited; added tags and fusions are not shown. Lines headed by an entry give the natural chain unless they say otherwise; changes in a name come on top.", "UniProt P10275": "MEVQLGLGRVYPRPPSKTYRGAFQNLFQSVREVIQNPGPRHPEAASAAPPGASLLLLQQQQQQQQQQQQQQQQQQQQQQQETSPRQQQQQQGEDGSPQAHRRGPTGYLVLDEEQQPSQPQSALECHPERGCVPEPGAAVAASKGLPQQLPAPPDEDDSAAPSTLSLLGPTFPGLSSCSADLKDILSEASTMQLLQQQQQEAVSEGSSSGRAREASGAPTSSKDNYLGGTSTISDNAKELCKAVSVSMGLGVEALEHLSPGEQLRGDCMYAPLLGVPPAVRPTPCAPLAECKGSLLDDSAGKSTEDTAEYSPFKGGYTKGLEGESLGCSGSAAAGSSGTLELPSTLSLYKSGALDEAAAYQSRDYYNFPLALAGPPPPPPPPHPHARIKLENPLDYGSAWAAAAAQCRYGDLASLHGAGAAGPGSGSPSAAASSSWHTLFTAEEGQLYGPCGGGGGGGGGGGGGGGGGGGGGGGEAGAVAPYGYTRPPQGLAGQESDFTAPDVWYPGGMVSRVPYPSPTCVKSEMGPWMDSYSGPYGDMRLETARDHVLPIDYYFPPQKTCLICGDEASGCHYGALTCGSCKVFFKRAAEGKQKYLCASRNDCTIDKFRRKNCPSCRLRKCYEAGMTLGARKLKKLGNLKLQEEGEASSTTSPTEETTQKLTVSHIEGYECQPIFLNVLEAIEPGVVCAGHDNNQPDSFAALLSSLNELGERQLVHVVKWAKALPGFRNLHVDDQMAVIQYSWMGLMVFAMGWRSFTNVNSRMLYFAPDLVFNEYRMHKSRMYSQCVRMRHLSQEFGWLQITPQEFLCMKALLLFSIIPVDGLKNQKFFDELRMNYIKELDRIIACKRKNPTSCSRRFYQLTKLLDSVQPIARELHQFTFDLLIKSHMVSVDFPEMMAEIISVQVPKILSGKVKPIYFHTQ"}, "source": "patent US6462038B1", "about": "“Androgen receptor modulator compounds and methods” (Ligand Pharmaceuticals, Inc., priority 1999, dated 2002)", "format_in_all_cases": "cell-based", "key": {"hAR [1]": {"target": "T1, hAR (Homo sapiens, UniProt P10275)", "T1 construct": "expressed in transfected cells; host or cells: CV-1 cells (African green monkey kidney fibroblasts)", "experiment": "co-transfection assay, AR agonist, CV-1 cells", "settings": "AR Potency Agon (nM), Table 2"}, "GR": {"target": "T2, GR (Homo sapiens, UniProt P04150)", "T2 construct": "expressed in transfected cells; host or cells: CV-1 cells", "T2 sequence (P04150 1-777)": "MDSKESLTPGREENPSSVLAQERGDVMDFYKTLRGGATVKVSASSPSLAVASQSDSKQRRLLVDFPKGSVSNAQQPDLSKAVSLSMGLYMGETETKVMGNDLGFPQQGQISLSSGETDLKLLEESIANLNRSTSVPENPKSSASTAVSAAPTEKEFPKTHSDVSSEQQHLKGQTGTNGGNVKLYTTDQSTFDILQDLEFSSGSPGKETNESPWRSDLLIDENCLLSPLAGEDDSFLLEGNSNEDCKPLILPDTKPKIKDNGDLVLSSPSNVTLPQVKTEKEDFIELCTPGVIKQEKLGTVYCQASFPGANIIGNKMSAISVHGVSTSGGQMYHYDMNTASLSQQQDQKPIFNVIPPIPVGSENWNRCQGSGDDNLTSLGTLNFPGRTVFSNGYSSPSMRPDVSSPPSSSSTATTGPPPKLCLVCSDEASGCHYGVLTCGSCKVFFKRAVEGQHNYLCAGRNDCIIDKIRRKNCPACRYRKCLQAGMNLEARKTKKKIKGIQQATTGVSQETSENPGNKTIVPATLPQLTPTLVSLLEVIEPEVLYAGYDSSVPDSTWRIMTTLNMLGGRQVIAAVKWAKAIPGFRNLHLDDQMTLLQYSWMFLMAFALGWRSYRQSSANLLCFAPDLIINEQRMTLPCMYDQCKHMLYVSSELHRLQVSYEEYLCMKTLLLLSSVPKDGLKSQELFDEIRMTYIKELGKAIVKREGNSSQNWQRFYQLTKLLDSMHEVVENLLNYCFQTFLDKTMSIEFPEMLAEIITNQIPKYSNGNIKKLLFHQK", "experiment": "co-transfection assay, GR antagonist"}, "PR [2]": {"target": "T3, PR (Homo sapiens, UniProt P06401)", "T3 construct": "expressed in transfected cells; host or cells: CV-1 cells", "T3 sequence (P06401 1-933)": "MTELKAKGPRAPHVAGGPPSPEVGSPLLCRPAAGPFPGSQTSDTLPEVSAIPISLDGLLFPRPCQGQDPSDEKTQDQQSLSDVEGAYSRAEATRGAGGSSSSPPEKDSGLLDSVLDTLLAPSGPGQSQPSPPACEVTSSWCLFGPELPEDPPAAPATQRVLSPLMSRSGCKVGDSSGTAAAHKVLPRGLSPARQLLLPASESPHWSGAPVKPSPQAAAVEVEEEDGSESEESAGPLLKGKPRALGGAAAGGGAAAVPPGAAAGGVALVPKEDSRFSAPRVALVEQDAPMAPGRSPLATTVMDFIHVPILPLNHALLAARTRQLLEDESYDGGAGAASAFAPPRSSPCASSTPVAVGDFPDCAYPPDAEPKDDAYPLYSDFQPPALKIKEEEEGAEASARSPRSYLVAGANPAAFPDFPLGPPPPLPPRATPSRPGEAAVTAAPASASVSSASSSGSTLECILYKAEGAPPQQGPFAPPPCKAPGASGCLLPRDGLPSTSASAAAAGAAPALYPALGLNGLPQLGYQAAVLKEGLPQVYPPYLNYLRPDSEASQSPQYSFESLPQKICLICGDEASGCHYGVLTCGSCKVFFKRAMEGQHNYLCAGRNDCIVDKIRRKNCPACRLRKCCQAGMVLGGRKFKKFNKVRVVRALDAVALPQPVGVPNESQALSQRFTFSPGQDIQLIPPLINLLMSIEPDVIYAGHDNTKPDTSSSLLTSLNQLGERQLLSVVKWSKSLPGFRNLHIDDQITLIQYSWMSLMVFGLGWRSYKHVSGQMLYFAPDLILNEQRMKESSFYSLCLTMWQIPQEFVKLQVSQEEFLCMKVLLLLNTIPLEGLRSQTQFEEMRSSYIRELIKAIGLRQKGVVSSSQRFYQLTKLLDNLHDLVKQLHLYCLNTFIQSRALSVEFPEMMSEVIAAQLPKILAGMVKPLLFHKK", "experiment": "co-transfection assay, PR antagonist (in presence of progesterone)"}, "PR [3]": {"target": "T3, PR", "experiment": "co-transfection assay, PR agonist"}, "hAR [4]": {"target": "T1, hAR", "experiment": "co-transfection assay, AR antagonist (in presence of DHT), CV-1 cells"}, "MR": {"target": "T4, MR (Homo sapiens, UniProt P08235)", "T4 construct": "expressed in transfected cells; host or cells: CV-1 cells", "T4 sequence (P08235 1-984)": "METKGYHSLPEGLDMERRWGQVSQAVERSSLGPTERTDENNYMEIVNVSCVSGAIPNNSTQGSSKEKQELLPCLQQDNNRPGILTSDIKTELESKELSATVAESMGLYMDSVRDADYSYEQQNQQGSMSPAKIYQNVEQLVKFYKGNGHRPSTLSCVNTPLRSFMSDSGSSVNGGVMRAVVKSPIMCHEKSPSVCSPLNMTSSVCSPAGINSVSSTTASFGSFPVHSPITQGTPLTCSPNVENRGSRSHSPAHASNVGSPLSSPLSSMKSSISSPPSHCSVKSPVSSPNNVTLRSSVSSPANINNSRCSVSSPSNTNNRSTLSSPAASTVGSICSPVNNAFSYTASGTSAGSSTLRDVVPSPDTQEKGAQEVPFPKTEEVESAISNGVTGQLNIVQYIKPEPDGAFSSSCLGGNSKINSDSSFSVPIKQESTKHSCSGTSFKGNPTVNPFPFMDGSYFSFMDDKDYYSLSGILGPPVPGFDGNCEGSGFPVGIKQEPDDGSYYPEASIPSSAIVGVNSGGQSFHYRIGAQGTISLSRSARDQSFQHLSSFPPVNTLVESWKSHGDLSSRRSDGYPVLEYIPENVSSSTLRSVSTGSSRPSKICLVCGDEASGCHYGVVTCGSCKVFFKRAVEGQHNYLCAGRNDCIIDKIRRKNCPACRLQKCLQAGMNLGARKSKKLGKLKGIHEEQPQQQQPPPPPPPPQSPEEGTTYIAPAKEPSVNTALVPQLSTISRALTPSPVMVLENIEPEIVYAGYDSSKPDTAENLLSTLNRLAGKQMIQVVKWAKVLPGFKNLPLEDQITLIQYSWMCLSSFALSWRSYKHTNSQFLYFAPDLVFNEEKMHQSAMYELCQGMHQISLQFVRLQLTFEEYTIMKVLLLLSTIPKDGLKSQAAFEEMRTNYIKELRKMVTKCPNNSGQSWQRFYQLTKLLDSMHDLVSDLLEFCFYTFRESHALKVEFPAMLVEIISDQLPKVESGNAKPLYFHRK", "experiment": "co-transfection assay, MR antagonist"}}}
{"molecule": "CCCCN(C)C(=O)CCCCCCCCCC[C@@H]1Cc2cc(O)ccc2[C@H]2CC[C@]3(C)[C@@H](O)CC[C@H]3[C@H]12", "note": "[ICI 164, N-butyl-3,17-dihydroxy-N-methyl-(7-alpha,17-beta)-estra-1,3,5(10)-triene-7-undecanamide, reference compound]", "values": [{"measurement": "EC50", "setting": "hAR [1]", "result": "> 10000", "unit": "nM"}, {"measurement": "IC50", "setting": "GR", "result": "> 10", "unit": "µM"}, {"measurement": "IC50", "setting": "PR [2]", "result": "> 10", "unit": "µM"}, {"measurement": "EC50", "setting": "PR [3]", "result": "> 10", "unit": "µM"}, {"measurement": "IC50", "setting": "hAR [4]", "result": "> 10", "unit": "µM"}, {"measurement": "IC50", "setting": "MR", "result": "> 10", "unit": "µM"}]}
